The values below come from ChEMBL document CHEMBL1126786, “Nitrobenzyl mustard quaternary salts: a new class of hypoxia-selective cytotoxins showing very high in vitro selectivity” (1993).

The structures appear in SMILES notation.

Test [1] relates to UV4. Kind of test: Concentration of the drug to give 10% cell survival under aerobic conditions using UV4 cells suspension. As to conditions: Cricetulus griseus.
For test [2], the system named is UV4. Kind of test: Hypersensitivity factor which is a ratio of IC50 of AA8 cells to that of the UV4 cells.
Test [3] in a line: Ratio of concentration of cell survival in aerobic conditions to that of hypoxic conditions after 1-hour exposure.

Regarding `C[N+](CCCl)(CCCl)Cc1cccc([N+](=O)[O-])c1`, the C10 with UV4 [1] was over 50 mM.
With `C[N+](CCCl)(CCCl)Cc1ccc([N+](=O)[O-])cc1`, the results for the Ratio (in the test with UV4 [2]; in test [3]) were 2900 and 9, respectively. Also, the C10 in the test with UV4 [1] came to 6 mM.
The matching figures for `C[N+](CCCl)(CCCl)Cc1ccccc1[N+](=O)[O-]`: 300, 200 and 8 mM.
